Test results reported in US6680058B1, “Compositions and methods for contraception in or sterilization of mammals” (Board of Supervisors of Louisiana State University and …, priority 1997, dated 2004).

Target: T1, LH receptor on bovine granulosa cells and bovine small luteal cells (bovine), Q28005
T1 chain: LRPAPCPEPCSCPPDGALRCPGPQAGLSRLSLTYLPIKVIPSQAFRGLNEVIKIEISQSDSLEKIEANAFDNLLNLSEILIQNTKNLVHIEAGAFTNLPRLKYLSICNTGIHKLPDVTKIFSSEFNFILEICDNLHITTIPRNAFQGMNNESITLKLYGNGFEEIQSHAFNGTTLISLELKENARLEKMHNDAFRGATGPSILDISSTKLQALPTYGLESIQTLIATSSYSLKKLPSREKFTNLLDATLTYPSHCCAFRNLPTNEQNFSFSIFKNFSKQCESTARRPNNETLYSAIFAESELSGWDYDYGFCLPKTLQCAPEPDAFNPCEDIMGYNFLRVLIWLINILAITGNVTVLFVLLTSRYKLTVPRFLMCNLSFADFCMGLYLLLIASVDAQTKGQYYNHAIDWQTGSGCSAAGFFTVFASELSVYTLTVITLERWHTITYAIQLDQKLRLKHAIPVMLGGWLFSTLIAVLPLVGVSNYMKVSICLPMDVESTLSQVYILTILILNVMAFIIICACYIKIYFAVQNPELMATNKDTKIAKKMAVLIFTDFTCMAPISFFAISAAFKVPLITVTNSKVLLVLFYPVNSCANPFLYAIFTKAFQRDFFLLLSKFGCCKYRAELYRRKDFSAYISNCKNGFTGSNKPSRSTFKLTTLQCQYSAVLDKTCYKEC
Experiment: cell-based or functional assay

Question: Which killing of bovine granulosa cells at 1 µM (fold of cells killed by hecate alone) does the source give for FALALKALKKALKKLKKALKKALSYAVALSCQCALCRR (modifications not checked) [hecate-bLH conjugate] here?
Answer: 2
